Values of other authors in patent US6994981B2, “Modulators of paraptosis and related methods” (The Buck Institute, priority 2002, dated 2006).

Protein sequences, listed by entry. Tags and fused reporters are not part of them.
UniProt P14600, whole entry: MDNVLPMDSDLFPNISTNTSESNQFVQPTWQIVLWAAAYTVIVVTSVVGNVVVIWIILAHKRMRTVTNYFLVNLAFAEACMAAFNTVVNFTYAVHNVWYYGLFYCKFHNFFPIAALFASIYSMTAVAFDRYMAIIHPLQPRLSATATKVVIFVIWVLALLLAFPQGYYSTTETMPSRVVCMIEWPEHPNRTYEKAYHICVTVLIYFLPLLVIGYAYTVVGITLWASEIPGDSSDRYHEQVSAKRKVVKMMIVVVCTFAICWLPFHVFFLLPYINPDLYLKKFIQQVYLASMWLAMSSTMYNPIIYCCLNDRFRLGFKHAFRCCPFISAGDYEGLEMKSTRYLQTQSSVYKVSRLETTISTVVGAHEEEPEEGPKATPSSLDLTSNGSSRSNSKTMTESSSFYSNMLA

Key:
[1] = molecular target: neurokinin-1 receptor (NK1R) (Rattus norvegicus, UniProt P14600); details: cited from earlier work
paraptosis = details: cited from earlier work

| Substance | affinity for NK1R [1] | effect of caspase inhibitors on paraptosis (paraptosis) |
| --- | --- | --- |
| SP: eleven amino acid neurotransmitter of the tachykinin family, ligand of NK1R | nanomolar affinity | – |
| xiap: X-chromosome-linked inhibitor of apoptosis | – | lack of effect |
